Earlier results in patent publication US12370233B2, “Depot systems comprising glatiramer acetate” (MAPI PHARMA LTD., priority 2016, dated 2025).

Conditions: as reported by Rotstein et al., JAMA Neurol., 2015

B1: peginterferon beta-la (protein, UniProt P01574 22-187, looked up)
Interferon beta: MSYNLLGFLQRSSNFQCQKLLWQLNGRLEYCLKDRMNFDIPEEIKQLQQFQKEDAALTIYEMLQNIFAIFRQDSSSTGWNETIVENLLANVYHQINHLKTVLEEKLEKEDFTRGKLMSSLHLKRYYGRILHYLKAKEYSHCAWTIVRVEILRNFYFINRLTGYLRN
modifications: PEGylated (peginterferon beta-1a)
notes: approved therapy for relapsing remitting MS
NEDA at one year: 34%
